# Experimental data from paper PMC2670776 (Hepatology (Baltimore, Md.), 2009).
# System: HepB5 cells
# Details: 50 mM ethanol, 48 hr, DCFDA units per mg protein, 3 experiments
smiles,measurement,value
CCO [ethanol],"ROS production, fold-higher",2.5 fold
